In ChEMBL document CHEMBL4842390, “Amino-Heterocycle Tetrahydroisoquinoline CXCR4 Antagonists with Improved ADME Profiles via Late-Stage Buchwald Couplings” (ACS Med Chem Lett, 2021) one finds IC50 data, which are given here for one molecule.

The chains behind the UniProt entries cited, without tags or fusion partners.
UniProt P61073, whole entry: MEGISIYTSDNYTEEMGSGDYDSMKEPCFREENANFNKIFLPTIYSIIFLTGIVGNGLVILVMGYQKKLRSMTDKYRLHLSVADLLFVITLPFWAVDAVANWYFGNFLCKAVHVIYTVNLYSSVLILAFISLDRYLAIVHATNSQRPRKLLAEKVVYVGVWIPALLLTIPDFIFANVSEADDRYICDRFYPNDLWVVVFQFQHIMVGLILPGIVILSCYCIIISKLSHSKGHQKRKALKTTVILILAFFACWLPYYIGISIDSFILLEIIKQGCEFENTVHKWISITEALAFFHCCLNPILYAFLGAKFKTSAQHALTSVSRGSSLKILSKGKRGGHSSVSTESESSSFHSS

This assay addresses C-X-C chemokine receptor type 4 (Homo sapiens, UniProt P61073). Put plainly: Antagonist activity at CXCR4 receptor in human CCRF-CEM cells assessed as inhibition of SDF-1alpha-induced calcium release preincubated for 25 mins followed by SDF-1alpha addition and monitered for 90 sec. It is filed as functional, cell-based.

Broadly, the IC50 is the point on the concentration scale where inhibition reaches its midpoint. As for `NCCCCN(Cc1nc2ccccc2[nH]1)[C@H]1CCCc2cccnc21` [MAVORIXAFOR], the IC50 worked out at 5.18 nM.
